US20260182580A1, “ANTIMICROBIAL COATING COMPOSITION AND METHOD OF PRODUCING ANTIMICROBIAL PRODUCT USING THE SAME” (published 2026)

Assay: Dissolution of silver salt in solvent when preparing the antimicrobial agent
Conditions: in most solvents

silver perchlorate
time to dissolve: ≤ 1 min
